Values joined by “and” are separate entries in the source; they are usually repeats but may differ in a detail not shown here. Equal values may be shown once. Only a part is listed here, and it is no random draw. Results filed as inconclusive are left out. Active and inactive are the calls of the source. Calls come from the whole dose curve; as a rule, active = well fitted cell-killing curve with a large enough effect in the repeat runs; inconclusive = weak or mixed curves, or effect the other way; inactive = flat fitted curve, though single readings scatter.
% is set by controls: 0 for no effect and ±100 for the full control effect.

This assay in a line: qHTS RealTime-Glo MT Cell Viability Assay in HEK293 cells - 40 hour (AID 1224874). Note: nearly all actives have a fitted effect of over 50% in size. The note with it: RealTime-Glo luminescence, hits give low values. An excerpt:
U.S. Tox21 Program National Center for Advancing Translational Sciences [NCATS] NIH Chemical Genomics Center [NCGC] U.S. Environmental Protection Agency [EPA] National Institutes of Environmental Health Sciences [NIEHS] National Toxicology Program [NTP] U.S. Food and Drug Administration [FDA] Tox21 Assay Overview: Measure of cell viability is critical in the cell-base assay. Analysis of cell viability is necessary for the characterization of cell responses to cytotoxic drugs and environmental stress. A RealTime-Glo MT Cell Viability Assay to monitor cell viability in real time of continues cell culture during 40 hours of compound treatment was used to screen Tox21 10K library compounds in Hek293 cells. The RealTime-Glo MT Cell Viability Assay is a nonlytic, homogeneous, bioluminescent method to measure cell viability in real time using a simple, plate-based method. The assay involves adding NanoLuc luciferase and a cell-permeant prosubstrate to cells in culture. Viable cells reduce the proprietary prosubstrate to generate a substrate for NanoLuc luciferase. This substrate diffuses from cells into the surrounding culture medium, where it is rapidly used by the NanoLuc Enzyme to produce a luminescent signal. The signal correlates with the number of viable cells, making the assay well suited for cytotoxicity studies.
Tox21 Assay Protocol Summary: The mixture of Hek293 cell suspension and reagents were dispensed at 600cells/6 ul/well in 1536-well tissue culture treated black solid bottom plates using a Multidrop dispenser. After the assay plates were incubated at a 37 C/5% CO2 incubator for 5 hours, 23 nL of compounds dissolved in DMSO, positive and negative controls was transferred to the assay plate by a pintool work station. The plates were incubated at 37 C for 40 hours. The luminescence intensity were measured at 0h, 8h, 16h, 24h, 32h and 40h time points using ViewLux plate reader during compound treatment.
As to `OCCSCCO`, the max response is inactive: -3.61% and inactive: 3.35%.

As to `N=C(N)N[N+](=O)[O-]`, the max response is inactive: -4.95%.

Take `COc1ccc([N+](=O)[O-])cc1[N+](=O)[O-]`: the max response was inactive: 1.97%.

For the molecule `COP(C)(=O)OC`, the max response is inactive: 0.147% and inactive: -0.807%.

`O=[N+]([O-])[O-].[NH4+]`: the max response is inactive: 2.89% and inactive: 3.5%.

As for `CC(C)OP(C)(=O)OC(C)C`, the max response is inactive: 14.7%.

Consider `[NH4+].[O-][Cl+3]([O-])([O-])[O-]`, for which the max response is inactive: 0.217% and inactive: 2.31%.

For `N#CBr`, the max response is inactive: 11.5%.

Regarding `CCN(CC)CCCl`, the max response is inactive: 2.97%.

For `CCOP(=O)(CC)OCC`, the max response is inactive: 7.05%.

`O=[N+]([O-])OCC(CO[N+](=O)[O-])(CO[N+](=O)[O-])CO[N+](=O)[O-]`: the max response was inactive: 3.21%.

On to `Cc1ccc([N+](=O)[O-])cc1[N+](=O)[O-]`, for which the max response was inactive: -0.0089% and inactive: 3.62%.

As to `CP(=O)(O)OCCC[Si](O)(O)O`, the max response was inactive: -0.0233%.

Take `C/C1=C2N=C(/C=C3N=C(/C(C)=C4\[N-][C@@](C)([C@@H]5N=C1[C@](C)(CCC(=O)NC[C@@H](C)OP(=O)([O-])O[C@H]1[C@@H](O)[C@@H](n6cnc7cc(C)c(C)cc76)O[C@@H]1CO)[C@H]5CC(N)=O)[C@@](C)(CC(N)=O)[C@@H]4CCC(N)=O)[C@@](C)(CC(N)=O)[C@@H]\3CCC(N)=O)C(C)(C)[C@@H]/2CCC(N)=O.[C-]#N.[Co+3]`: the max response was inactive: -5.82%.

As for `CN(C)CCCl`, the max response is inactive: -1.13%.

On to `CCOP(=O)(CC)Oc1ccc([N+](=O)[O-])cc1` (configuration not stated), for which the max response was inactive: -11.7%.

Regarding `CC(C)N(CCO)C(C)C`, the max response is inactive: -7.13%.

The values are drawn from PubChem BioAssay (Tox21).
